Measured values from US9284300B2 (dated 2016).

Chains of the proteins cited; added tags and fusions are not shown. Residues count along the entry.
UniProt P08581, 25-1390: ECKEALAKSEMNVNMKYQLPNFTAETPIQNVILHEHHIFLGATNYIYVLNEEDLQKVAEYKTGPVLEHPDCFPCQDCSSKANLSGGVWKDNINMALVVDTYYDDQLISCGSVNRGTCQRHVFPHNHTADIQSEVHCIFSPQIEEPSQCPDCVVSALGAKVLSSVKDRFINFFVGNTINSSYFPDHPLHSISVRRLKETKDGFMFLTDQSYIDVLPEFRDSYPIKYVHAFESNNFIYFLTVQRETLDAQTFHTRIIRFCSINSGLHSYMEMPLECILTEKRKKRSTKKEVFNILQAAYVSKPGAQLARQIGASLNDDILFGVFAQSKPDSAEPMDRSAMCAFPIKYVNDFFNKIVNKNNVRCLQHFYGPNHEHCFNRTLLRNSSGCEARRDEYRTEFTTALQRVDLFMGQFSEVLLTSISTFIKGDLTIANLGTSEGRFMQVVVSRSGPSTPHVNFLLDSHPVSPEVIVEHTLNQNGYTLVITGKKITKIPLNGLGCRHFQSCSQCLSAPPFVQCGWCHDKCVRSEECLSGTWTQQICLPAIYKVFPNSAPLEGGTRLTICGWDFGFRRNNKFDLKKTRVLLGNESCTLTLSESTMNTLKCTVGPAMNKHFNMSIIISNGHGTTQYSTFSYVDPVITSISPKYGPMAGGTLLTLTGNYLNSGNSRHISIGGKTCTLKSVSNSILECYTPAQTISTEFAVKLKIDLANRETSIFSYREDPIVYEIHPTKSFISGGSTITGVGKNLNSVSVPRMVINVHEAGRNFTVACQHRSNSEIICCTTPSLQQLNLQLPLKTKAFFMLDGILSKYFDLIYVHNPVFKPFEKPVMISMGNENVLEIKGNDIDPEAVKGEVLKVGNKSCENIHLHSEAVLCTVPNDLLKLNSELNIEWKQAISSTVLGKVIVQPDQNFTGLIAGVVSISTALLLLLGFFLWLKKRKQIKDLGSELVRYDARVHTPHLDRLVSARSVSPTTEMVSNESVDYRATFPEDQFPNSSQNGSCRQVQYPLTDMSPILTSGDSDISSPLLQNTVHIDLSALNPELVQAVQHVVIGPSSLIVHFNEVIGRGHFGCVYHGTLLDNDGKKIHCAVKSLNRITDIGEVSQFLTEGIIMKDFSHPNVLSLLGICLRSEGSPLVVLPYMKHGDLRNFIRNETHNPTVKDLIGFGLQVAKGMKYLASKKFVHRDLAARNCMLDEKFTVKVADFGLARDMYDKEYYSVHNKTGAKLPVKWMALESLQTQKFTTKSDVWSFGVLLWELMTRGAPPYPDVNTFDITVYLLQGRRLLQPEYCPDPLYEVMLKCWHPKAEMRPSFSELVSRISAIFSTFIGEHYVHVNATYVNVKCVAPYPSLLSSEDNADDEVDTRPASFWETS

Target: Met kinase (Homo sapiens, UniProt P08581)
Experiment: Met kinase inhibition, cell assay
Assay type: cell-based

Structure (SMILES): Cn1cc(-c2ccc(=O)n(Cc3cccc(-c4ncc(OCCN5CCOCC5)cn4)c3)n2)cn1 [A229, 6-(1-methyl-1H-pyrazol-4-yl)-2-{3-[5-(2-morpholin-4-ylethoxy)pyrimidin-2-yl]benzyl}-2H-pyridazin-3-one]
- IC50: 1 to 1000 nM
